Data on 22 compounds can be found in patent US9085561B2, “Cyclic urea- or lactam-substituted quinoxaline-type piperidines as ORL-1 modulators” (priority 2012, dated 2015).

Protein sequences, listed by entry. Tags and fused reporters are not part of them. Lines headed by an entry give the natural chain unless they say otherwise; changes in a name come on top.
UniProt P10635, whole entry, looked up: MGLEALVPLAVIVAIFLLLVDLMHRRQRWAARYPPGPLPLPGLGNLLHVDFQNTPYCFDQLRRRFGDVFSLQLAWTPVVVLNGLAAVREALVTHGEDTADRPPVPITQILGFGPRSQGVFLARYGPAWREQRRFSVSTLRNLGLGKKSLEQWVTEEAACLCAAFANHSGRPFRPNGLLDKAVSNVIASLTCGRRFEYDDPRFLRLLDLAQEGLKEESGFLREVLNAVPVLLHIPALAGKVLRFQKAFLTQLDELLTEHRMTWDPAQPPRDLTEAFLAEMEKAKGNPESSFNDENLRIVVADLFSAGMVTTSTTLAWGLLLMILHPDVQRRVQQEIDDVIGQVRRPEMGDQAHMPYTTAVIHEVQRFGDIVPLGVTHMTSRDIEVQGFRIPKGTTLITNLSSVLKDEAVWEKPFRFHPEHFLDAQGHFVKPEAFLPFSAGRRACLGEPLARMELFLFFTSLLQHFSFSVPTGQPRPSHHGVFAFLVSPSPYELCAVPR
UniProt P41146: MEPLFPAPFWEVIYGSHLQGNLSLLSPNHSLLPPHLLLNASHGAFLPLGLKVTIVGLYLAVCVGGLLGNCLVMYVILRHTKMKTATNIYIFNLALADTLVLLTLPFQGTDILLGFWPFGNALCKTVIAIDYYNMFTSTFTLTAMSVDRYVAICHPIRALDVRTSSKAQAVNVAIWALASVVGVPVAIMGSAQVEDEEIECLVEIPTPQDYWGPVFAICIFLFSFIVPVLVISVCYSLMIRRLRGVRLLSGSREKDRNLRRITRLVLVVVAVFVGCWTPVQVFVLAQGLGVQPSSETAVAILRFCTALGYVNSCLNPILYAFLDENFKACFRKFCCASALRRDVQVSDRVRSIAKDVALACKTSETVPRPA
UniProt P41143: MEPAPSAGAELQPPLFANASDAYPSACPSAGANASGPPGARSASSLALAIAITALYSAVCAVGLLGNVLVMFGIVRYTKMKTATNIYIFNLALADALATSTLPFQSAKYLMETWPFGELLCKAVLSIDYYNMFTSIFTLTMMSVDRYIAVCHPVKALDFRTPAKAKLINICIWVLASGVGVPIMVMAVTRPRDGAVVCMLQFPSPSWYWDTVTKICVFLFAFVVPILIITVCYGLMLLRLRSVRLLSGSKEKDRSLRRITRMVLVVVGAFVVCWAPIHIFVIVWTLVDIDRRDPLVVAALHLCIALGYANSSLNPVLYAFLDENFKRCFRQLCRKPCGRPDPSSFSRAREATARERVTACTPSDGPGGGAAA
UniProt P35372: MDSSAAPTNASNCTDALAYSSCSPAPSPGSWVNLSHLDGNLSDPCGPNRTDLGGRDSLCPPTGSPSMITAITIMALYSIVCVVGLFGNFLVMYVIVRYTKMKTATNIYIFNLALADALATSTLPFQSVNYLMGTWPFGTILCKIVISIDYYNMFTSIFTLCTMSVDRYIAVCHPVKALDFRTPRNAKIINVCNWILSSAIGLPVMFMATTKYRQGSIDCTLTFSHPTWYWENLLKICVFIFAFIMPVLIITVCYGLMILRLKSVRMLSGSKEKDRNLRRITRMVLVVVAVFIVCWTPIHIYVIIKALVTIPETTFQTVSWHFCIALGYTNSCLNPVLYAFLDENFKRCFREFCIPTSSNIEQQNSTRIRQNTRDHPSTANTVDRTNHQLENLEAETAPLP
UniProt P41145: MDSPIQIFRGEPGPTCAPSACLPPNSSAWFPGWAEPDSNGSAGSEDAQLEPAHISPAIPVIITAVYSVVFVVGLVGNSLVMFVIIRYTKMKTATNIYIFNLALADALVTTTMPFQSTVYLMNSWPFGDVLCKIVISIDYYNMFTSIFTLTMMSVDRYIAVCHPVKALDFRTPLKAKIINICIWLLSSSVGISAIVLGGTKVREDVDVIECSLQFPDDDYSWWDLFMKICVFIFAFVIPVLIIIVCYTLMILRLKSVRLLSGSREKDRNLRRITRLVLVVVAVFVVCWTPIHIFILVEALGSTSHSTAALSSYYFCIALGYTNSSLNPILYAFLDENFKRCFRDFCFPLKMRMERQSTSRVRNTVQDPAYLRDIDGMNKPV

In general, IC50 refers to the concentration that gives 50% inhibition.

In one data set the target is human CYP2D6 (Homo sapiens, UniProt P10635). Put plainly: Cytochrome P450 2D6 inhibition (dextromethorphan O-demethylation, pooled human hepatic microsome). Particulars: read-out: CYP2D6 IC50; procedure of Example 45.
Data set [1] concerns the target T1, human opioid receptor-like (ORL-1) (Homo sapiens, UniProt P41146). As to the kind of experiment: In vitro ORL-1 receptor [35S]GTPγS functional assay. The data set is classed as biochemical. The conditions noted are these: procedure of Example 38; for EC50: read-out: GTPγS ORL-1 EC50 [mean ± SEM].
The target of data set [2] is recombinant delta opioid receptor expressed in CHO-K1 cells (Homo sapiens, UniProt P41143). Put plainly: In vitro delta-opioid receptor binding assay ([3H]-Naltrindole displacement). The conditions noted are these: read-out: Ki [Average ± Std Deviation] Opioid Receptor Delta; binding to delta-opioid receptor, procedure of Example 43.
Data set [3] addresses T2, human μ-opioid receptor (Homo sapiens, UniProt P35372). As to the kind of experiment: In vitro mu-opioid receptor [35S]GTPγS functional assay. The data set is classed as biochemical. Particulars: read-out: GTPγS Opioid Receptor EC50 Mu [mean ± SEM]; procedure of Example 40.
Data set [4] deals with T3, kappa opioid receptor (Homo sapiens, UniProt P41145). Put plainly: In vitro kappa-opioid receptor [35S]GTPγS functional assay. Particulars: read-out: GTPγS Opioid Receptor EC50 Kappa [mean ± SEM]; procedure of Example 42. For orientation: Binding of GTPγS marks nucleotide exchange on a G protein.
In data set [5] the target is T1, human opioid receptor-like (ORL-1). Put plainly: In vitro ORL-1 receptor binding assay ([3H]-nociceptin displacement). The conditions noted are these: read-out: Ki [Average ± Std Deviation] ORL-1; binding to ORL-1 receptor, procedure of Example 37.
For data set [6], the target named is T2, human μ-opioid receptor. Put plainly: In vitro mu-opioid receptor binding assay ([3H]-diprenorphine displacement). The conditions noted are these: read-out: Ki [Average ± Std Deviation] Opioid Receptor Mu; binding to mu-opioid receptor, procedure of Example 39.
The target in data set [7] is T3, kappa opioid receptor. As to the kind of experiment: In vitro kappa-opioid receptor binding assay ([3H]-U69,593 displacement). The conditions noted are these: read-out: Ki [Average ± Std Deviation] Opioid Receptor Kappa; binding to kappa-opioid receptor, procedure of Example 41.
The target of a further data set is human δ-opioid receptors (Homo sapiens, UniProt P41143). Put plainly: In vitro delta-opioid receptor [35S]GTPγS functional assay. The conditions noted are these: read-out: GTPγS Opioid Receptor EC50 Delta [mean ± SEM]; procedure of Example 44.

In the case of `CC1(C)[C@H]2CC[C@@H](CCN3[C@@H]4CCC[C@H]3C[C@@H](n3c(=O)c(-c5cccc(=O)n5CC(=O)O)nc5ccccc53)C4)[C@@H]1C2`, the IC50 at human CYP2D6 is 18900 nM.
Still for that read-out and setting: under `C[C@@H]1C[C@@H]2C[C@H](C1)C[C@@H](N1[C@@H]3CCC[C@H]1C[C@@H](n1c(=O)c(-c4cc[nH]c(=O)c4)nc4ccccc41)C3)C2` stands above 20000 nM; under `C[C@@H]1C[C@@H]2C[C@H](C1)C[C@@H](N1[C@@H]3CCC[C@H]1C[C@@H](n1c(=O)c(-c4ccc[nH]c4=O)nc4ccccc41)C3)C2`, above 20000 nM; under `C[C@@H]1C[C@@H]2C[C@H](C1)C[C@@H](N1[C@@H]3CC[C@H]1C[C@@H](n1c(=O)c(-c4ccc[nH]c4=O)nc4ccccc41)C3)C2`, 8000 nM.
On to `O=C(O)c1c[nH]c(=O)c(-c2nc3ccccc3n([C@H]3C[C@H]4CCC[C@@H](C3)N4[C@H]3C[C@@H]4CCC[C@@H](C4)C3)c2=O)c1`, for which the IC50 on human CYP2D6 was above 20000 nM.
On the same count and under the same terms, the value for `O=c1[nH]cccc1-c1nc2ccccc2n([C@H]2C[C@H]3CCC[C@@H](C2)N3C2CCCCCCCCC2)c1=O` was above 20000 nM; that for `O=c1[nH]cccc1-c1nc2ccccc2n([C@H]2C[C@H]3CCC[C@@H](C2)N3[C@@H]2C[C@@H]3CCCC[C@@H](C3)C2)c1=O` was above 20000 nM.
Take `O=c1[nH]cccc1-c1nc2ccccc2n([C@H]2C[C@H]3CCC[C@@H](C2)N3[C@H]2C[C@@H]3CCC[C@@H](C3)C2)c1=O`: the IC50 on human CYP2D6 is above 20000 nM.
The same measure, in the same setting: under `O=c1[nH]cccc1-c1nc2ccccc2n([C@H]2C[C@H]3CC[C@@H](C2)N3[C@@H]2C[C@@H]3CCCC[C@@H](C3)C2)c1=O` stands above 20000 nM; under `O=c1[nH]cccc1-c1nc2ccccc2n([C@H]2C[C@H]3CC[C@@H](C2)N3[C@H]2C[C@@H]3CCC[C@@H](C3)C2)c1=O`, above 20000 nM; under `O=c1[nH]cccc1-c1nc2ccccc2n([C@H]2C[C@H]3COC[C@@H](C2)N3[C@@H]2C[C@@H]3CCCC[C@@H](C3)C2)c1=O`, above 20000 nM.
In the case of `O=c1cc(-c2nc3ccccc3n([C@H]3C[C@H]4CCC[C@@H](C3)N4[C@H]3C[C@@H]4CCC[C@@H](C4)C3)c2=O)cc[nH]1`, the IC50 at human CYP2D6 was above 20000 nM.
The same measure, in the same setting: under `O=c1ccc(-c2nc3ccccc3n([C@H]3C[C@H]4CCC[C@@H](C3)N4[C@H]3C[C@@H]4CCC[C@@H](C4)C3)c2=O)c[nH]1` stands above 20000 nM; under `O=c1cnc(-c2nc3ccccc3n([C@H]3C[C@H]4CCC[C@@H](C3)N4[C@H]3C[C@@H]4CCC[C@@H](C4)C3)c2=O)c[nH]1`, above 20000 nM.
On to “1-((1R,1′R,3r,3′R,5S,5′S)-[3,9′-bi(9′-azabicyclo[3.3.1]nonan)]-3′-yl)-3-(6-oxo-1,6-dihydropyridin-2-yl)quinoxalin-2(1H)-one”, for which the “GTPγS ORL-1 Emax [mean ± SEM]” value in data set [1] worked out at 30%. Moreover, the EC50 in [1] was 10.9 nM; on human μ-opioid receptor [3] it was above 20000 nM; at kappa opioid receptor [4], above 20000 nM. In addition, the Ki in [2] was above 20000 nM; in data set [5], 6.19 nM; on human μ-opioid receptor [6], 216 nM; on kappa opioid receptor [7], 10.9 nM. On human CYP2D6, the IC50 was above 20000 nM.
Consider “1-((1R,3R,5S)-9-((1R,6S,8s)-bicyclo[4.3.1]decan-8-yl)-9-azabicyclo[3.3.1]nonan-3-yl)-3-(2-oxo-1,2-dihydropyridin-4-yl)quinoxalin-2(1H)-one”, for which, in [1], the “GTPγS ORL-1 Emax [mean ± SEM]” value is 23.7 ± 1.2% and the EC50 is 3 nM. For the same compound, the Ki in data set [5] is 0.4 nM.
Turning to “2-(2-(4-((1R,1′R,3r,5′R,5S,5′S,7S)-7-methyl-[3,9′-bi(9′-azabicyclo[3.3.1]nonan)]-3′-yl)-3-oxo-3,4-dihydroquinoxalin-2-yl)-6-oxopiperidin-1-yl)acetic acid”, in data set [1], the “GTPγS ORL-1 Emax [mean ± SEM]” value is listed as 37.3 ± 1.7%. For the same compound, the EC50 in data set [1] is 8.5 nM; at human μ-opioid receptor [3], above 20000 nM; at kappa opioid receptor [4] it was above 20000 nM. The Ki in [2] worked out at 5410 nM; in [5] it was 2.96 nM; at human μ-opioid receptor [6] it was 115 nM. For the same compound, the IC50 on human CYP2D6 was above 20000 nM.
In the case of “2-(6-(4-((1R,1′R,3 r,3′R,5S,5′S)-[3,9′-bi(9′-azabicyclo[3.3.1]nonan)]-3′-yl)-3-oxo-3,4-dihydroquinoxalin-2-yl)-2-oxopyridin-1(2H)-yl)acetic acid”, in [1], the “GTPγS ORL-1 Emax [mean ± SEM]” value came to 24.0 ± 4.5% and the EC50 was determined as 18.7 nM. Further, in data set [5], the Ki came out at 5.58 nM. Also, on human CYP2D6, the IC50 was above 20000 nM.
In the case of “2-(6-(4-((1R,1′R,3r,3′R,5S,5′S,7S)-7-methyl-[3,9′-bi(9′-azabicyclo[3.3.1]nonan)]-3′-yl)-3-oxo-3,4-dihydroquinoxalin-2-yl)-2-oxopyridin-1(2H)-yl)acetic acid”, in data set [1], the “GTPγS ORL-1 Emax [mean ± SEM]” value is listed as 35.3 ± 0.9%. Further, the EC50 in data set [1] was 29.1 nM; on human μ-opioid receptor [3], above 20000 nM; at kappa opioid receptor [4], above 20000 nM. The Ki in data set [2] worked out at 3650 nM; in data set [5], 11 nM; at human μ-opioid receptor [6] it was 59.5 nM; at kappa opioid receptor [7], 63.3 nM. Besides, the IC50 at human CYP2D6 is above 20000 nM.
In the case of “3-(3-(4-((1R,1′R,3r,3R,5S,5′S)-[3,9′-bi(9′-azabicyclo[3.3.1]nonan)]-3′-yl)-3-oxo-3,4-dihydroquinoxalin-2-yl)-2-oxopyridin-1(2H)-yl)-2,2-dimethylpropanoic acid”, the “GTPγS ORL-1 Emax [mean ± SEM]” value in data set [1] was 25.3 ± 2.7%. For the same compound, the EC50 is 45.9 nM in data set [1], above 20000 nM on human μ-opioid receptor [3], 486 nM on human δ-opioid receptors and above 20000 nM at kappa opioid receptor [4]. Also, the Ki in data set [2] was found to be 523 nM; in data set [5], 39.9 nM; on human μ-opioid receptor [6], 261 nM; on kappa opioid receptor [7], 148 nM. The IC50 at human CYP2D6 was above 20000 nM.
With “3-(4-((1R,1′R,3r,3′R,5S,5′S)-[3,9′-bi(9′-azabicyclo[3.3.1]nonan)]-3′-yl)-3-oxo-3,4-dihydroquinoxalin-2-yl)-5,5-dimethylimidazolidine-2,4-dione”, the “GTPγS ORL-1 Emax [mean ± SEM]” value in data set [1] is given as 27.7 ± 1.5%. Further, the EC50 is 17.9 nM in data set [1], above 20000 nM on human μ-opioid receptor [3] and above 20000 nM on kappa opioid receptor [4]. Further, the Ki in data set [2] was above 20000 nM; in [5] it was 7.5 nM; at human μ-opioid receptor [6] it was 222 nM; on kappa opioid receptor [7], 5 nM. Moreover, the IC50 on human CYP2D6 is above 20000 nM.
In the case of “N-(1-(4-((1R,1′R,3r,3′R,5S,5′S)-[3,9′-bi(9′-azabicyclo[3.3.1]nonan)]-3′-yl)-3-oxo-3,4-dihydroquinoxalin-2-yl)-2-oxo-1,2,3,4-tetrahydropyrimidin-4-ypacetamide”, the “GTPγS ORL-1 Emax [mean ± SEM]” value in [1] is reported as 36 ± 3%. The results for the EC50 (in [1]; on human μ-opioid receptor [3]; on kappa opioid receptor [4]) were 10.6 nM, above 20000 nM and above 20000 nM, respectively. For the same compound, the Ki in data set [2] came out at 8750 nM; in data set [5] it was 3.1 nM; on human μ-opioid receptor [6], 38.2 nM; on kappa opioid receptor [7], 7.8 nM. The half-inhibitory concentration (IC50) at human CYP2D6 was above 20000 nM.
